{
  "source": "patent US9381164B2",
  "about": "“Silk nanospheres and microspheres and methods of making same” (TRUSTEES OF TUFTS COLLEGE, priority 2009, dated 2016)",
  "origin": "cited, not measured here",
  "conditions": "Porous sponge, Drug absorbed; cited from earlier work",
  "data": [
    {"substance": "BMP-2: bone morphogenetic protein loaded in silk delivery systems", "values": [
      {"measurement": "In vitro drug release", "result": ">7", "unit": "days"}
    ]}
  ]
}
